Experimental data from PubChem BioAssay (NCATS).
Several values for one entry are separate records, joined by “and”; a condition that tells them apart may be missing. Identical values can stand only once. This is a selection; strong and weak results do not stand in their true shares. Records with an inconclusive call do not appear. Activity calls are given as the source filed them. Unless noted, calls come from the whole dose curve; as a rule, active = well fitted curve in the direction sought with a large enough effect; inconclusive = small, poorly fitted or top-dose-only effect, or another doubt; inactive = no such curve, though single readings can be large; an effect the other way counts as inactive or inconclusive.

By UniProt entry, the sequences of proteins in these tests, tags left out. Where a name states a change or a piece, a line headed by the entry shows the natural chain unless it says otherwise.
UniProt P27695, whole entry, looked up: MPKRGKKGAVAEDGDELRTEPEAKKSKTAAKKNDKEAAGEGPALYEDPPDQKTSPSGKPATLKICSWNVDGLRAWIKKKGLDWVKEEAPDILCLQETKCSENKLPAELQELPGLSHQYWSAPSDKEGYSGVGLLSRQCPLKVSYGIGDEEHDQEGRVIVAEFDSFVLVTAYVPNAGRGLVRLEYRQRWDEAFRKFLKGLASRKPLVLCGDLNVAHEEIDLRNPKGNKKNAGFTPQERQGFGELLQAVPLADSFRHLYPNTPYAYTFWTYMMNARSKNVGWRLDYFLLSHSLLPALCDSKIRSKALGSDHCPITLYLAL
UniProt P02791: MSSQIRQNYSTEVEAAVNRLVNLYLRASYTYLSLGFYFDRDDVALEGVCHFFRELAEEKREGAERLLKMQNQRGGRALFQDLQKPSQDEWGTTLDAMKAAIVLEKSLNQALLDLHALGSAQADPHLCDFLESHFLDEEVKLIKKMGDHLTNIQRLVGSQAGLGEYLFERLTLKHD
UniProt P46063: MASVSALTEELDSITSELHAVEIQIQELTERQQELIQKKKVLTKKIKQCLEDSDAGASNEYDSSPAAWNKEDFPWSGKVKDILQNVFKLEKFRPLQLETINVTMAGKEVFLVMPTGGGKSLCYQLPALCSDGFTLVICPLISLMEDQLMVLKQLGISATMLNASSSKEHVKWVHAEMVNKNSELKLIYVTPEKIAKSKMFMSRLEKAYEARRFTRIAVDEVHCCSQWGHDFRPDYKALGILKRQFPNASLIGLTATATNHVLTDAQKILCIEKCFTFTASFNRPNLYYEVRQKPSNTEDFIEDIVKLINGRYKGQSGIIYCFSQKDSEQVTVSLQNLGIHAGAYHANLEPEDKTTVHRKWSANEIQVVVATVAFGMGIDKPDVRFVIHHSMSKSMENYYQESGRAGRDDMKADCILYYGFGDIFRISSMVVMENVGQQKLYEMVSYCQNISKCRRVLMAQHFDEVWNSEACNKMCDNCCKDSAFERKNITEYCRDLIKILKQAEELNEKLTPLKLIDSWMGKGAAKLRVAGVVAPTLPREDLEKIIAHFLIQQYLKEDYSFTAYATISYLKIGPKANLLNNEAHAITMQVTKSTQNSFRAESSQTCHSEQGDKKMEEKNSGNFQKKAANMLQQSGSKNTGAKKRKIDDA
UniProt P54132: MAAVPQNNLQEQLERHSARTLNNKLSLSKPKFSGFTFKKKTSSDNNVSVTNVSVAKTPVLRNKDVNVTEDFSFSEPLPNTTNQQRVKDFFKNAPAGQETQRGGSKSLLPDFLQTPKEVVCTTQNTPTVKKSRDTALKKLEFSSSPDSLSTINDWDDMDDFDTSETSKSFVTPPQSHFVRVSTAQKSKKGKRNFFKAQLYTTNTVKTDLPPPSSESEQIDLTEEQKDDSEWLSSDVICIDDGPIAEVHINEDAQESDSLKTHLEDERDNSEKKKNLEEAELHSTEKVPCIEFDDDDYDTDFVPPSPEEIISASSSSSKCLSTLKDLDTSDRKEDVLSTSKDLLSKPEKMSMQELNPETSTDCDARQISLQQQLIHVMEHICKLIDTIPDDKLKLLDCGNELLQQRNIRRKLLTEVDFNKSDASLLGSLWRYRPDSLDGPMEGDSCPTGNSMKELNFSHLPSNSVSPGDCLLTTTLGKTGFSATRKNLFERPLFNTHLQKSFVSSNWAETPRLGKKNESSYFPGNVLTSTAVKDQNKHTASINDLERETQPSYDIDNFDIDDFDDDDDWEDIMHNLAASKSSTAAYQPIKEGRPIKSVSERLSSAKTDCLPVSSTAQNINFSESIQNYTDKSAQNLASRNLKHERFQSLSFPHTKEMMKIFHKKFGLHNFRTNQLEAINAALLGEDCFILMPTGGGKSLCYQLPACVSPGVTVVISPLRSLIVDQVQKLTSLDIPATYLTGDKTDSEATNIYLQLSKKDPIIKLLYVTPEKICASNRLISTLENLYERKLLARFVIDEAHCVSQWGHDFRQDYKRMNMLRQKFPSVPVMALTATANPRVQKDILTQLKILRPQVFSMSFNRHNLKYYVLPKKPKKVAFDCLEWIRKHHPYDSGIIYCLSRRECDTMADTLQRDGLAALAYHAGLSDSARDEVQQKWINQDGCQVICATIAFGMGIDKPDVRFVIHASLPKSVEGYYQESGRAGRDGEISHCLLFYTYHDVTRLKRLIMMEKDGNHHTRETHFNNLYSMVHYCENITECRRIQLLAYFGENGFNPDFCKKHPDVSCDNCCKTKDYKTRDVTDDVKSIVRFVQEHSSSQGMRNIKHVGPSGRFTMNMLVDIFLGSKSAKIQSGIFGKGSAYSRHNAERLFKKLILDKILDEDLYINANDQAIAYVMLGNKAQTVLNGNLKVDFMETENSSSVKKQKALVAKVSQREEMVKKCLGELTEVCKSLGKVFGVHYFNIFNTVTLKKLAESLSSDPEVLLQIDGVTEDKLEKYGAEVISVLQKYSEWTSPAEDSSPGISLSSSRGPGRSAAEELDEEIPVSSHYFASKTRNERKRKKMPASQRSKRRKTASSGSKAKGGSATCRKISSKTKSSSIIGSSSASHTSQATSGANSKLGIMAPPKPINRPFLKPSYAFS
UniProt O75604: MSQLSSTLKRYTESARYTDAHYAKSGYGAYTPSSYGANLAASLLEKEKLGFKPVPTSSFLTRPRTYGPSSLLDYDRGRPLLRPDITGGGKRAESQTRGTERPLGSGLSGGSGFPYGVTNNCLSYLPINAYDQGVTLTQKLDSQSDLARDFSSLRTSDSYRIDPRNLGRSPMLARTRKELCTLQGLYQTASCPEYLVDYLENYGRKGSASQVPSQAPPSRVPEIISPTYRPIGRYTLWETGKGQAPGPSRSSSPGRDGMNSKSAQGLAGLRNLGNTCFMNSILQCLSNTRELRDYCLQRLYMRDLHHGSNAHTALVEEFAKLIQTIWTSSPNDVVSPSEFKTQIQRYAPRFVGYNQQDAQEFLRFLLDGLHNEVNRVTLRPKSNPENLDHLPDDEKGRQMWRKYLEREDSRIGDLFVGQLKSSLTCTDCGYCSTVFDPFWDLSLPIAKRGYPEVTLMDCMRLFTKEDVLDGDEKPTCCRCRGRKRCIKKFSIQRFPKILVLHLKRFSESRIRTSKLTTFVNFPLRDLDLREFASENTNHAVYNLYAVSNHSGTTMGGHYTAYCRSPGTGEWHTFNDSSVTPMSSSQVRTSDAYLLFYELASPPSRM
UniProt O89049, whole entry, looked up: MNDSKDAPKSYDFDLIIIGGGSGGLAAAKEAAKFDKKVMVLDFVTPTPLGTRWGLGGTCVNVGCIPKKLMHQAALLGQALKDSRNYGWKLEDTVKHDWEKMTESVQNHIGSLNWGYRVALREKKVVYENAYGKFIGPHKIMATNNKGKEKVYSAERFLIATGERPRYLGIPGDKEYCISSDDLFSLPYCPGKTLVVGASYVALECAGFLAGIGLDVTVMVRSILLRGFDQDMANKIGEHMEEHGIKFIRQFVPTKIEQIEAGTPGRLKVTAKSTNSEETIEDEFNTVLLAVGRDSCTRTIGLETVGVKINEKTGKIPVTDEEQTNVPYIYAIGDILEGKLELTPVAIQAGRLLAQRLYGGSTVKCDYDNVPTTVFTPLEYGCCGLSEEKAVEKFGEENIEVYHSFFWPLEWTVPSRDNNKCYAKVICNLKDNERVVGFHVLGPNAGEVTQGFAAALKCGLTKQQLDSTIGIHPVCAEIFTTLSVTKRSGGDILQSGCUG

Key:
[1] = Validation of Assay for Modulators of Lamin A Splicing (AID 1459; active = well fitted curve in the direction sought with a large enough effect in the signal ratio; the % refers to the signal ratio;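 note: cells exposed to compound for two days before reading; 0% is about no effect; ratio rise marks activators and ratio drop marks inhibitors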); conditions: Lamin A splicing dual RFP/GFP fluorescence reporter; at 9.22 µM (top of the series)
Summary of the method: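 HeLa S3 lamin A-EGFP/DsRed2 stable clone, 600 cells/well, Opti-MEM 2% FBS; compounds by pin tool; 48 hrs, 37 °C/5% CO2; Acumen 488 nm scan, objects 10-100 um; GFP/RFP intensity ratio.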

[2] = target: DNA repair nuclease/redox regulator APEX1 (Homo sapiens) (UniProt P27695); assay: qHTS Validation Assay for Inhibitors of the Human Apurinic/apyrimidinic Endonuclease 1 (APE1) (AID 1705;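 note: TAMRA fluorescence gain over two minutes as APE1 cuts a quenched THF abasic duplex; % is set by controls: 0 for no effect and ±100 for the full control effect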); conditions: purified APE1 endonuclease activity, fluorescence, titration; at 57.1 µM (top of the series)
Summary of the method: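 qHTS, 1536-well. APE1 + cpd 15 min RT → 50 nM TAMRA/BHQ-2 THF-abasic dsDNA substrate → kinetic fluorescence, 3 reads/60 s; delta(read3−read1) = reaction progress. No-enzyme buffer = negative control.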

[3] = Counterscreen for APE1 Inhibitors: Fluorescent Dye Displacement Validation Assay (AID 1707); conditions: fluorescent dye displacement from DNA; at 57.1 µM (top of the series);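 note: plate controls were ThO with dsDNA and no compound for no effect and ThO without dsDNA for full effect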
Summary of the method: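 Assay buffer: Tris-HCl pH7.5 with 50mM NaCl, 2 mM MgCl2, 0.01% Tween-20. Dye 250 nM, duplex 50 nM final. Readout: decrease in ThO endpoint fluorescence, 480 nm excitation, 540 nm emission.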

[4] = target: Ferritin light chain (Equus caballus) (UniProt P02791); assay: qHTS Validation Assay for Identification of Novel General Anesthetics (AID 2323); conditions: horse apoferritin, anesthetic-site fluorescent probe displacement; at 76.9 µM (top of the series); note: % is set by controls: 0 for no effect and ±100 for the full control effect
Summary of the method: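 Fluorescence at 535 nm (excitation 380 nm) reported loss of 1-AMA binding to horse-spleen apoferritin (10 uM) in PBS with 50% saturated 1-aminoanthracene, after 10 min room-temperature incubation with compound; values from Hill fits of normalized response.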

[5] = target: ATP-dependent DNA helicase Q1 (Homo sapiens) (UniProt P46063); assay: qHTS Validation Assay for Inhibitors of RecQ-Like Dna Helicase 1 (RECQ1) (AID 2353); conditions: recombinant RECQ1 helicase DNA unwinding assay; at 25.6 µM (top of the series);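 note: plate controls were DMSO vehicle for no effect and enzyme-free control for full effect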
Summary of the method: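 50 nM RECQ1T1 preincubated 15 min with compound in Tris pH 8.0 buffer with MgCl2, DTT, Tween-20 and 2.5 ug/ml poly(dI-dC); started with 200 nM TAMRA/BHQ-2 forked duplex and 2 mM ATP. Unwinding read as fluorescence (525/598 nm), two reads 2 h apart.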

[6] = target: RecQ-like DNA helicase BLM (Homo sapiens) (UniProt P54132); assay: qHTS Validation Assay for Inhibitors of Bloom's syndrome helicase (BLM) (AID 2364); conditions: BLM helicase DNA unwinding, fluorescence, in vitro; at 57.1 µM (top of the series);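 note: plate controls were DMSO vehicle for no effect and enzyme-free control for full effect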
[7] = Cytometric Cell-Based qHTS for Inhibitors of the mTORC1 Signaling Pathway in MEF (Tsc2-/-, p53-/-) Cells (AID 2660); conditions: mTORC1 pathway cytometry; at 38.3 µM (top of the series);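 note: Tsc2 and p53 null MEFs carrying empty vector with compound for 24 h; percent of cells above a phospho-rpS6 to PI ratio cutoff in each well; plate controls were DMSO for no effect and rapamycin for full effect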
Summary of the method: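 Cells are plated, treated with compound for 24 hrs at 37 degree Celsius, then fixed, blocked and immunostained for phospho-rpS6 Ser235/236. Propidium iodide counterstain follows. Per-well % positive cells is derived from the PI-normalized phospho-S6 signal.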

[8] = High Content Imaging Cell-Based qHTS for Inhibitors of the mTORC1 Signaling Pathway in MEF (Tsc2-/-, p53-/-) Cells (AID 2666); conditions: at 38.3 µM (top of the series);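 note: percent of cells scored positive for phospho-rpS6 Ser235/236 immunostaining by imaging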
Summary of the method: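 Cells were plated, dosed with compound after 24 hrs, and incubated another 24 hrs at 37 degree Celsius. Fixed cells were immunostained for phospho-rpS6 Ser235/236 and counterstained, and the normalized signal was scored as % active cells against rapamycin and DMSO controls.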

[9] = High Content Imaging Cell-Based qHTS for Inhibitors of the mTORC1 Signaling Pathway in MEF Cells (AID 2667); conditions: at 38.3 µM (top of the series);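 note: Tsc2-/- p53-/- MEFs stably re-expressing wild-type Tsc2 exposed 24 h; plate controls were DMSO wells for no effect and rapamycin control wells for full effect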
Summary of the method: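 Immunofluorescence for rpS6 phosphorylation in MEFs of Tsc2-/-, p53-/- background rescued with WT Tsc2. Compound exposure lasted 24 hrs. Inhibition was scored against rapamycin-treated control wells.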

[10] = Cytometry Cell-Based qHTS for Inhibitors of the mTORC1 Signaling Pathway in MEF cells (AID 2668); conditions: mTORC1 pathway readout; at 38.3 µM (top of the series);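 note: Tsc2-/- p53-/- mouse embryonic fibroblasts stably re-expressing wild-type Tsc2; percent cells positive for phospho-rpS6 Ser235/236 relative to propidium iodide stain; plate controls were DMSO wells for no effect and 7.5 nM rapamycin control wells for full effect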
Summary of the method: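 Tsc2-/-, p53-/- MEFs re-expressing WT Tsc2; cpd 24 hrs, 37 degree Celsius; PFA fix, Alexa-488 p-rpS6 (Ser235/236) Ab 2 hrs RT, PI counterstain; Acumen 488nm scan; p-S6/PI ratio → % positive cells; PI count = viability.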

[11] = Validation screen for small molecules that induce DNA re-replication in MCF 10A normal breast cells (AID 463097); conditions: MCF 10A cells, DNA re-replication phenotype imaging; at 46.1 µM (top of the series); note: 0% is about no effect; nearly all actives have a fitted effect of over 60% in size
Summary of the method: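 Image-based qHTS: normal breast cells are incubated with compound for 48 hr, stained with Hoechst, and scanned for total nuclear fluorescence. Compounds raising the fraction of nuclei with elevated DNA content count as re-replication inducers.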

[12] = target: Ubiquitin carboxyl-terminal hydrolase 2 (Homo sapiens) (UniProt O75604); assay: qHTS Validation Assay for Inhibitors of Ubiquitin-specific Protease USP2a Using CHOP2 as the Reporter (AID 463106); conditions: USP2a cleavage of CHOP2 reporter, enzymatic; at 38.3 µM (top of the series);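 note: plate controls were DMSO for no effect and full inhibition by NEM for full effect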
Summary of the method: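 10nM USP2 core + cpd, 30min RT; add 25nM Ub-CHOP2/25nM substrate; 60min RT; FI 485/531nm. Buffer Tris pH 8.0, CaCl2, BME, CHAPS. Norm. to NEM = 100% inhibition; time-zero read flags fluorescent artifacts.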

[13] = qHTS Validation Assay to Find Inhibitors of Chronic Active B-Cell Receptor Signaling (AID 485345; active = well fitted curve in the direction sought with a large enough effect in the main read-out, with a control signal flat, not every such curve was filed as active;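 note: 0% = untreated basal cells and 100% = 10 µM MG-132 proteasome inhibitor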); conditions: ABC-DLBCL cells, chronic BCR signaling reporter, CBG luciferase; at 46.1 µM (top of the series)
Summary of the method: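 Read-out: ratio of filter-corrected green (IkappaBalpha fusion) to red (native) luciferase signal in doxycycline-induced TMD8 cells after 4 h at 37C. Titration spanned 46 uM–3 nM; Data were normalised to basal cells and 10 uM MG-132 wells.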

[14] = target: Beta-2 adrenergic receptor (Homo sapiens) (UniProt P07550); assay: qHTS validation assay of beta-arrestin-biased ligands of beta2-adrenergic receptor (AID 485366); conditions: cell-based beta-arrestin recruitment to ADRB2, qHTS; at 46.1 µM (top of the series); note: 0% is about no effect
Summary of the method: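 Values derive from curve-fitted %Activity of a luminescent beta-arrestin recruitment reporter; compounds tested up to 46 microM on Tango cells for 18 hr at 37 degrees C, 5% CO2.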

[15] = target: Thioredoxin reductase 1, cytoplasmic (Rattus norvegicus) (UniProt O89049); assay: qHTS Assay for Substrates of Mammalian Selenoprotein Thioredoxin Reductase 1 (TrxR1) (AID 488772); conditions: purified TrxR1, NADPH consumption substrate assay; at 57.1 µM (top of the series);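 note: NADPH fluorescence in the first read after selenite addition and not the 8 min delta; 0% is about no effect; a drop in NADPH fluorescence below the no-compound background marks a TrxR1 substrate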
Summary of the method: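 Quantitative HTS in Tris-HCl buffer at pH 7.5 with EDTA and Tween-20, using rat TrxR1, 400 uM NADPH and 400 uM selenite (final). A fall in initial NADPH fluorescence relative to background marked substrate behaviour.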

CN(C(=O)Cc1ccc(Cl)c(Cl)c1)[C@H]1CCCC[C@@H]1N1CCCC1
inactive: ratio change, both ways [1] -9.73% and -4.51% | activity change, negative = inhibition [2] -5.66% and -2.53% | activity change, negative = inhibition [3] -1.57% and 1.88% | activity change, negative = inhibition [4] -16.9% | activity change, negative = inhibition [5] -3.94% and -5.37% | activity change, negative = inhibition [6] -8.8% and -5.86% | activity change, negative = inhibition [7] 9.52% and -0.794% | outcome [8] | activity change, negative = inhibition [9] -100% | activity change, negative = inhibition [10] -11.5% | re-replication induction [11] 1.08% and -2.19% | activity, negative = inhibition [12] 1.63% and 2.09% | activity change [13] -4.93% and -11.8% | activation [14] 0.981% and 0.0527% | activity change, negative = NADPH consumption [15] -2.21% and -2.95%
